Article PMC7037682, “Herb–Drug Interaction of Red Ginseng Extract and Ginsenoside Rc with Valsartan in Rats” (Molecules, 2020)

Tests used:
OCT1 [1] = biological target: T1, OCT1 (Homo sapiens, UniProt O15245); conditions: read-out: IC50 OCT1, literature; cited from earlier work
T1 sequence (O15245 1-554): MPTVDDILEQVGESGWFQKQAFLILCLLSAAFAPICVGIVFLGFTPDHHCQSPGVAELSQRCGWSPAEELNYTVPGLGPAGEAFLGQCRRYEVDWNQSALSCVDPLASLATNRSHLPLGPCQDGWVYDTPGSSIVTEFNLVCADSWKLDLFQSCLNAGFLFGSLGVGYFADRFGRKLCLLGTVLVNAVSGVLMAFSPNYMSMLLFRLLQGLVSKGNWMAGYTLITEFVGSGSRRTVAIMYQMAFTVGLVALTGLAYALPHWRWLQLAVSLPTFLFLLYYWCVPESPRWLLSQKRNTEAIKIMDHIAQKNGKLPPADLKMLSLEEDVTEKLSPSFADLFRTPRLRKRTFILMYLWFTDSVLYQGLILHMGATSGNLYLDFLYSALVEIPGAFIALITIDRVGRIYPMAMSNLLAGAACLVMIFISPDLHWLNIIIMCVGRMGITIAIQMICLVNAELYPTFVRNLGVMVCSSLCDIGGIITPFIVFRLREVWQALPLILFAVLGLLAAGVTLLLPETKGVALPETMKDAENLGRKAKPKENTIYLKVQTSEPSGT

OCT2 [2] = biological target: T2, OCT2 (Homo sapiens, UniProt O15244); conditions: read-out: IC50 OCT2, literature; cited from earlier work
T2 sequence (O15244 1-555): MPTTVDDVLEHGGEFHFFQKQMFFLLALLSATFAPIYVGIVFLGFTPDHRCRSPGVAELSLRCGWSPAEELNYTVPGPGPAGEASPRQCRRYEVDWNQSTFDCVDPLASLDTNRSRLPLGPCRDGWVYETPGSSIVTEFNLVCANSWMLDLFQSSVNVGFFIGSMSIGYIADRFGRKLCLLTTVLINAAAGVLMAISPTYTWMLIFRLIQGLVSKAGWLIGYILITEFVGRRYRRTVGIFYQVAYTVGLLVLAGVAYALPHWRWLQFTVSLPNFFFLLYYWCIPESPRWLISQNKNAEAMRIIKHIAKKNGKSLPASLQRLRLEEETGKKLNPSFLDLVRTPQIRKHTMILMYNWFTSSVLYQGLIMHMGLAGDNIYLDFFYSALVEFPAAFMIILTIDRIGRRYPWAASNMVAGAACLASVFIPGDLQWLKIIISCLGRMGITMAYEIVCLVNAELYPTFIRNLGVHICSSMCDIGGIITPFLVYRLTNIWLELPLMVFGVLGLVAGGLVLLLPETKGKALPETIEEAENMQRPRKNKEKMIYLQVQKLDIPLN

OCT2 [3] = biological target: T2, OCT2; test: Inhibition of OCT2-mediated [3H]MPP+ uptake in HEK293-OCT2 cells; conditions: read-out: IC50 OCT2; HEK293-OCT2, 0.1 μM [3H]MPP+ uptake, 5 min
Description: (§1) HEK293 cells overexpressing the OCT1, OCT2, OAT1, OAT3, OATP1B1, and OATP1B3 transporters (HEK293-OCT1, -OCT2, -OAT1, -OAT3, -OATP1B1, and -OATP1B3, respectively) and HEK293-mock cells (Corning Life Sciences; Woburn, MA, USA) were used and characterized as previously described.
(§2) HEK293 cells overexpressing drug transporters and HEK293-mock cells were seeded in poly-D-lysine-coated 96-well plates at a density of 10^5 cells/well and were cultured in DMEM supplemented with 10% FBS, 5 mM non-essential amino acids, and 2 mM sodium butyrate in a humidified atmosphere with 8% CO2 at 37 °C.
(§3) To examine the effects of ginsenosides and typical inhibitors on transporter activity, aliquots (100 μL) of HBSS containing the probe substrate and ginsenosides or typical inhibitors were added to the cells after aspirating pre-incubated HBSS. The concentrations and probe substrates were as follows: 0.1 μM [^3H]MPP^+ for OCT1 and OCT2, 0.1 μM [^3H]PAH for OAT1, 0.1 μM [^3H]ES for OAT3 and OATP1B1, and 0.1 μM [^3H]EG for OATP1B3. […] Then the uptake of probe substrates into HEK293-mock cells and HEK293-OCT1, -OCT2, -OAT1, -OAT3, -OATP1B1, and -OATP1B3 cells in the presence and absence of typical inhibitor or each ginsenoside with previously described concentration range was measured for 5 min. […] The radioactivity of the probe substrates in the cells was determined using a liquid scintillation counter. […]

OCT1 [4] = biological target: T1, OCT1; test: Inhibition of OCT1-mediated [3H]MPP+ uptake in HEK293-OCT1 cells; conditions: read-out: IC50 OCT1; HEK293-OCT1, 0.1 μM [3H]MPP+ uptake, 5 min
Description: as §1, §2, §3

Substance: Triethylammonium [TEA, reference compound]
- pIC50 (OCT1 [1]): 2.13 to 2.85
- pIC50 (OCT2 [2]): 2.69
- pIC50 (OCT2 [3]): 2.86
- pIC50 (OCT1 [4]): 2.93

pIC50: −log10 of the molar value. Like-named read-outs stand apart in the source and are kept apart here.
